Experimental data from EPA's ToxValDB 9.5 (doi:10.2903/j.efsa.2010.1823).

Key:
Anas platyrhynchos = details: short-term; oral; feed; mortality
Canidae = details: chronic; duration: 1 years; oral; Dog Other; organ weight
Daphnia magna = details: chronic/long-term; duration: 21 days; reproduction
Oryctolagus sp. = details: developmental; development
Tagia sp. = details: acute; duration: 14 days; mortality
Aphidius rhopalosiphi = test: LR50; higher = less toxic; details: not reported; mortality

For `CCOc1nc(C(Cl)(Cl)Cl)ns1` [Etridiazole], the LC50 (Anas platyrhynchos) was 286 mg/kg-day, the NOAEL (Canidae) was 3.1 mg/kg-day and the LD50 (Colinus virginianus; acute, oral, mortality) was 560 mg/kg-day. The NOEC (Colinus virginianus; reproduction developmental) was 3.7 mg/kg-day, the NOEC (Daphnia magna) was 0.37 mg/L and the LC50 (Oncorhynchus mykiss; acute, duration: 96 hours, mortality) was 2.4 µg/mL (≈ 9.7 µM). It also gave an NOEC (Oncorhynchus mykiss; chronic/long-term, duration: 90 days, growth) of 0.12 mg/L, an NOAEL (Oryctolagus sp.) of 15 mg/kg-day and an LD50 (Rattus norvegicus; acute, oral, mortality) of 945 mg/kg-day. The LOAEL (Rattus norvegicus; chronic, duration: 2 years, histopathology: nonneoplastic) was 5 mg/kg-day, the NOAEL (Rattus norvegicus; chronic, growth) was 5.3 mg/kg-day and the LC50 (Tagia sp.) was 198 mg/kg. It also gave an LR50 (Aphidius rhopalosiphi) of 1490 g/ha.

In brackets after ≈: the same amount, converted by molar mass.
